# Antibody variant affinities, Ab-91 heavy chain, assay 2

Data: MIT Lincoln Laboratory AlphaSeq set, Engelhart et al. 2022, doi:10.1038/s41597-022-01779-4, as distributed in FLAb.

The target is the same throughout: PDVDLGDISGINAS, from the HR2 region of SARS-CoV-2 spike.

Parent: Ab-91, a human scFv built as VL, a 15-residue (Gly4Ser)3 linker, VH. Only the CDRs of the heavy chain vary.
VL: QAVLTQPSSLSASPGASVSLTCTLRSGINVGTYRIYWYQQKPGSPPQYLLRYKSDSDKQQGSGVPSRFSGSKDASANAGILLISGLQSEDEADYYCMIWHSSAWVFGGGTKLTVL
VH: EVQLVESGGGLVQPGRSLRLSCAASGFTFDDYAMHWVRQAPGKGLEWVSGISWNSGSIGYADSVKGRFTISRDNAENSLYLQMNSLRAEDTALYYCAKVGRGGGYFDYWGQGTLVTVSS

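The parent was found by panning a naive human phage display library on the peptide. Variants in AAYL51 differ from the parent at up to three CDR positions; double and triple changes were sampled at random. AlphaSeq pools MATa yeast showing the antibodies with MATalpha yeast showing the peptide. Mating (16 h, 30 °C) was followed by selection of diploids and sequencing of their barcodes. Read counts were normalised to the haploid input and turned into Kd by a linear fit to BCL2-family pairs of known affinity, for each replicate. There are three technical replicates.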

Substitutions are numbered in sequence along the VH above, starting at 1 (not Kabat).
Every variant below is changed at Y60 of the VH (sequential numbering).
The Kd shown is the geometric mean over detected replicates; a lower Kd is a better binder.
Where no diploid with the target was found in any replicate, the entry reads "nd": below detection, most likely a poor binder, though not proof of it.

changes,Kd (apparent),replicates with signal
F29T/D31A/Y60M,250 nM,1 of 3
D30S/Y60Q,17 µM,1 of 3
I51P/Y60C/G104K,50 µM,1 of 3
Y60A/K65M,370 nM,3 of 3
F27V/Y32N/Y60P,130 µM,2 of 3
A33N/S55P/Y60R,nd,0 of 3
G56N/Y60C/V99F,69 µM,1 of 3
F27H/F29R/Y60A,nd,0 of 3
Y60R/Y105P/Y108Q,nd,0 of 3
H35I/W53P/Y60S,94 µM,3 of 3
Y60E/S63G,2.6 µM,3 of 3
G50N/Y60G/G102H,nd,0 of 3
S52C/Y60P,87 µM,2 of 3
G56Y/Y60E,2.6 µM,1 of 3
W53I/Y60N/D62M,nd,0 of 3
Y32T/Y60R/Y105R,2.0 µM,1 of 3
T28D/Y60N/V99Y,43 µM,3 of 3
F27S/S55E/Y60H,nd,0 of 3
F29I/Y60H/V64C,89 µM,3 of 3
G26T/Y60T/S63M,13 µM,2 of 3
M34R/Y60P/R101E,93 µM,1 of 3
Y60V/D62W,3.9 µM,2 of 3
I51Q/Y60S/V64M,nd,0 of 3
G50A/Y60K/V99Y,76 µM,3 of 3
F29K/N54Q/Y60I,6.0 µM,2 of 3
G56Q/Y60I/D62L,nd,0 of 3
G26I/Y60H/D107N,36 µM,2 of 3
D31F/Y60H/Y108F,30 µM,2 of 3
F29H/Y60F,8.3 µM,1 of 3
S55A/Y60Q,4.1 µM,2 of 3
I51A/Y60G/G100R,nd,0 of 3
F27P/Y60V/S63M,2.1 µM,1 of 3
I58G/Y60W,110 µM,2 of 3
M34E/Y60F,3.7 µM,1 of 3
D30E/N54G/Y60Q,19 µM,2 of 3
Y60T/R101H/Y105P,nd,0 of 3
G50L/Y60K,nd,0 of 3
S57W/Y60T/A61I,nd,0 of 3
Y60A/Y105N,nd,0 of 3
G26A/Y60A/F106M,13 µM,1 of 3
Y60S/V64H,31 µM,1 of 3
S57A/Y60L/Y105N,2.2 µM,2 of 3
G26L/M34A/Y60R,nd,0 of 3
W53V/Y60M/V99T,4.9 µM,3 of 3
S55G/G56D/Y60I,1.5 nM,3 of 3
Y32T/A33P/Y60M,51 µM,3 of 3
Y60G/A61P/D62F,28 µM,1 of 3
G56H/G59Y/Y60G,7.7 µM,1 of 3
N54I/Y60W,nd,0 of 3
H35A/Y60H/Y108G,nd,0 of 3
A33F/Y60S/K65W,nd,0 of 3
G56T/Y60T/K65S,16 µM,3 of 3
T28H/Y60P/Y105V,nd,0 of 3
D31K/Y60Q/G104A,nd,0 of 3
D31Q/Y60R,nd,0 of 3
D30E/G50K/Y60N,18 µM,1 of 3
Y60S,2.8 µM,3 of 3
D31A/A33H/Y60S,1.8 µM,1 of 3
I51Q/Y60E/Y108G,28 µM,1 of 3
N54P/Y60K,nd,0 of 3
Y60M,330 nM,3 of 3
H35Y/W53V/Y60W,3.2 µM,1 of 3
S55K/Y60V/R101L,nd,0 of 3
H35K/Y60V/V99K,140 µM,2 of 3
S57K/Y60E/D62H,180 µM,1 of 3
I51T/Y60V/G100V,1.4 mM,2 of 3
A33F/Y60W/V99G,nd,0 of 3
G56K/Y60R/V99I,nd,0 of 3
S57H/Y60W/Y105L,nd,0 of 3
S55K/Y60Q/G102R,nd,0 of 3

The first 8 entries again:

changes,Kd (apparent),replicates with signal
F29T/D31A/Y60M,250 nM,1 of 3
D30S/Y60Q,17 µM,1 of 3
I51P/Y60C/G104K,50 µM,1 of 3
Y60A/K65M,370 nM,3 of 3
F27V/Y32N/Y60P,130 µM,2 of 3
A33N/S55P/Y60R,nd,0 of 3
G56N/Y60C/V99F,69 µM,1 of 3
F27H/F29R/Y60A,nd,0 of 3

Background: pairings of library AAYL51 with three empty control strains gave a value in 21% of cases (median 34 µM, 5th percentile 1.8 µM). Values in that range, when seen in few replicates, are hard to tell from nonspecific mating.
In this assay the parent's reference entry averaged 72 nM; its copy inside this library read 7.5 nM.